Measurements as given in patent publication US10456407B2, “Combination therapy for treating cancer” (Epizyme, Inc., priority 2015, dated 2019).

Key:
OCI-Ly19 cells = test: RT2 Glucocorticoid signaling PCR array, OCI-LY19 (Table 4a, printed OCT) cell line; format: cell-based; settings: compared to DMSO
Text: (§1) Expression levels of (A). Sestrin; (B). TNF and (C) GILZ normalized to DMSO controls for each cell line with the indicated single agent or combination.

SU-DHL10 cells = test: RT2 Glucocorticoid signaling PCR array, SU-DHL10 (SUDHL10) cell line (Table 4d); format: cell-based; settings: SUDHL10, 4 days, vs DMSO
Text: as §1

C[C@]12C=CC(=O)C=C1CC[C@@H]1[C@@H]2[C@@H](O)C[C@@]2(C)[C@H]1CC[C@]2(O)C(=O)CO [Prednisolone, prednisolone]
Fold Change, ADARB1 (OCI-Ly19 cells; gene ADARB1): 1.035 | Fold Change, AFF1 (OCI-Ly19 cells; gene AFF1): 1.235 | Fold Change, AK2 (OCI-Ly19 cells; gene AK2): 1.045 | Fold Change, AMPD3 (OCI-Ly19 cells; gene AMPD3): 1.078 | Fold Change, ANGPTL4 (OCI-Ly19 cells; gene ANGPTL4): 1.686 | Fold Change, ANXA4 (OCI-Ly19 cells; gene ANXA4): 0.877 | Fold Change, ARID68 (OCI-Ly19 cells; gene ARID68): 1.056 | Fold Change, ASPH (OCI-Ly19 cells; gene ASPH): 0.787 | Fold Change, ATF4 (OCI-Ly19 cells; gene ATF4): 0.729 | Fold Change, BCL6 (OCI-Ly19 cells; gene BCL6): 0.847 | Fold Change, CEBPA (OCI-Ly19 cells; gene CEBPA): 0.979 | Fold Change, CEBPB (OCI-Ly19 cells; gene CEBPB): 0.622 | Fold Change COL4A2 (OCI-Ly19 cells; gene COL4A2): 0.330 | Fold Change, CREB1 (OCI-Ly19 cells; gene CREB1): 0.959 | Fold Change, CREB3 (OCI-Ly19 cells; gene CREB3): 1.114 | Fold Change, CREB3L4 (OCI-Ly19 cells; gene CREB3L4): 0.900 | Fold Change CTGF (OCI-Ly19 cells; gene CTGF): 2.114 | Fold Change, DDIT4 (OCI-Ly19 cells; gene DDIT4): 2.255 | Fold Change, DUSP1 (OCI-Ly19 cells; gene DUSP1): 0.893 | Fold Change, EHD3 (OCI-Ly19 cells; gene EHD3): 1.709 | Fold Change, FK8PS (OCI-Ly19 cells; gene FK8PS): 1.831 | Fold Change, FOSL2 (OCI-Ly19 cells; gene FOSL2): 1.395 | Fold Change, GDPD1 (OCI-Ly19 cells; gene GDPD1): 0.914 | Fold Change, GHRHR (OCI-Ly19 cells; gene GHRHR): 6.075 | Fold Change GLUL (OCI-Ly19 cells; gene GLUL): 1.064 | Fold Change, GOT1 (OCI-Ly19 cells; gene GOT1): 0.937 | Fold Change, H6PD (OCI-Ly19 cells; gene H6PD): 1.398 | Fold Change, HNRPLL (OCI-Ly19 cells; gene HNRPLL): 1.114 | Fold Change, KLF9 (OCI-Ly19 cells; gene KLF9): 2.971 | Fold Change, KLF13 (OCI-Ly19 cells; gene KLF13): 1.053 | Fold Change, LOX (OCI-Ly19 cells; gene LOX): 2.264 | Fold Change MERTK (OCI-Ly19 cells; gene MERTK): 1.212 | Fold Change MTZA (OCI-Ly19 cells; gene MTZA): 1.124 | Fold Change, NFKBIA (OCI-Ly19 cells; gene NFKBIA): 0.971 | Fold Change, NR3C1 (OCI-Ly19 cells; gene NR3C1): 1.219 | Fold Change PDCC7 (OCI-Ly19 cells; gene PDCC7): 0.042 | Fold Change PDGFRB (OCI-Ly19 cells; gene PDGFRB): 4.731 | Fold Change, PDP1 (OCI-Ly19 cells; gene PDP1): 1.340 | Fold Change, PER1 (OCI-Ly19 cells; gene PER1): 0.833 | Fold Change, PIK3R1 (OCI-Ly19 cells; gene PIK3R1): 1.086 | Fold Change, PLEKHF1 (OCI-Ly19 cells; gene PLEKHF1): 0.908 | Fold Change, POU2F1 (OCI-Ly19 cells; gene POU2F1): 0.967 | Fold Change, POU2F2 (OCI-Ly19 cells; gene POU2F2): 1.489 | Fold Change, RASA3 (OCI-Ly19 cells; gene RASA3): 0.994 | Fold Change, RGS2 (OCI-Ly19 cells; gene RGS2): 0.763 | Fold Change, RHOB (OCI-Ly19 cells; gene RHOB): 3.394 | Fold Change, SESN1 (OCI-Ly19 cells; gene SESN1): 0.972 | Fold Change, SGK1 (OCI-Ly19 cells; gene SGK1): 2.225 | Fold Change, SLC10A6 (OCI-Ly19 cells; gene SLC10A6): 1.291 | Fold Change, SLC19A2 (OCI-Ly19 cells; gene SLC19A2): 0.753 | Fold Change, SLC22A5 (OCI-Ly19 cells; gene SLC22A5): 0.849 | Fold Change, SNTA1 (OCI-Ly19 cells; gene SNTA1): 0.921 | Fold Change, SPHK1 (OCI-Ly19 cells; gene SPHK1): 0.985 | Fold Change, SPSB1 (OCI-Ly19 cells; gene SPSB1): 0.765 | Fold Change, STAT5A (OCI-Ly19 cells; gene STAT5A): 1.045 | Fold Change, STAT5B (OCI-Ly19 cells; gene STAT5B): 0.796 | Fold Change, TBL1XR1 (OCI-Ly19 cells; gene TBL1XR1): 1.176 | Fold Change, TNF (OCI-Ly19 cells; gene TNF): 1.709 | Fold Change, TNFAIP3 (OCI-Ly19 cells; gene TNFAIP3): 0.841 | Fold Change, TSC22D3 (OCI-Ly19 cells; gene TSC22D3): 3.238 | Fold Change, USP2 (OCI-Ly19 cells; gene USP2): 1.500 | Fold Change, USPS4 (OCI-Ly19 cells; gene USPS4): 0.820 | Fold Change, VDR (OCI-Ly19 cells; gene VDR): 1.659 | Fold Change, VLDLR (OCI-Ly19 cells; gene VLDLR): 0.945 | Fold Change, ZHX3 (OCI-Ly19 cells; gene ZHX3): 1.659 | Fold Change, ZNF281 (OCI-Ly19 cells; gene ZNF281): 0.547 | ADARB1 Fold Change (SU-DHL10 cells): 0.213 | AFF1 Fold Change (SU-DHL10 cells): 1.076 | AK2 Fold Change (SU-DHL10 cells): 1.270 | AMPD3 Fold Change (SU-DHL10 cells): 1.254 | ANGPTL4 Fold Change (SU-DHL10 cells): 1.075 | ANXA4 Fold Change (SU-DHL10 cells): 1.001 | ARIDS8 Fold Change (SU-DHL10 cells): 0.329 | ASPH Fold Change (SU-DHL10 cells): 0.889 | ATF4 Fold Change (SU-DHL10 cells): 0.337 | BCL6 Fold Change (SU-DHL10 cells): 0.477 | CEBPA Fold Change (SU-DHL10 cells): 0.581 | CEBPB Fold Change (SU-DHL10 cells): 0.186 | CREB1 Fold Change (SU-DHL10 cells): 0.981 | CREB3 Fold Change (SU-DHL10 cells): 1.070 | CREB3L4 Fold Change (SU-DHL10 cells): 0.460 | CYB561 Fold Change (SU-DHL10 cells): 0.893 | DDIT4 Fold Change (SU-DHL10 cells): 2.317 | DUSP1 Fold Change (SU-DHL10 cells): 1.646 | EHD3 Fold Change (SU-DHL10 cells): 1.207 | FK8PS Fold Change (SU-DHL10 cells): 3.029 | FOSL2 Fold Change (SU-DHL10 cells): 2.850 | GDPD1 Fold Change (SU-DHL10 cells): 1.916 | GOT1 Fold Change (SU-DHL10 cells): 0.582 | H6PD Fold Change (SU-DHL10 cells): 0.557 | HNRPLL Fold Change (SU-DHL10 cells): 0.711 | KLF9 Fold Change (SU-DHL10 cells): 3.742 | KLF13 Fold Change (SU-DHL10 cells): 4.566 | LOX Fold Change (SU-DHL10 cells): 1.419 | MT2A Fold Change (SU-DHL10 cells): 0.280 | NFKBIA Fold Change (SU-DHL10 cells): 0.953 | NR3C1 Fold Change (SU-DHL10 cells): 8.837 | PDCD7 Fold Change (SU-DHL10 cells): 0.743 | PDP1 Fold Change (SU-DHL10 cells): 0.701 | PER1 Fold Change (SU-DHL10 cells): 1.597 | PER2 Fold Change (SU-DHL10 cells): 1.152 | PIK3R1 Fold Change (SU-DHL10 cells): 1.028 | PLEKHF1 Fold Change (SU-DHL10 cells): 1.254 | POU2F1 Fold Change (SU-DHL10 cells): 1.042 | POU2F2 Fold Change (SU-DHL10 cells): 1.152 | RA5A3 Fold Change (SU-DHL10 cells): 0.966 | RGS2 Fold Change (SU-DHL10 cells): 0.387 | RHOB Fold Change (SU-DHL10 cells): 0.897 | SESN1 Fold Change (SU-DHL10 cells): 10.652 | SGK1 Fold Change (SU-DHL10 cells): 0.509 | SLC10A6 Fold Change (SU-DHL10 cells): 2.918 | SLC19A2 Fold Change (SU-DHL10 cells): 0.309 | SLC22A5 Fold Change (SU-DHL10 cells): 0.264 | SNTA1 Fold Change (SU-DHL10 cells): 1.047 | SPHK1 Fold Change (SU-DHL10 cells): 1.213 | SPSB1 Fold Change (SU-DHL10 cells): 1.546 | STAT5A Fold Change (SU-DHL10 cells): 0.768 | STAT5B Fold Change (SU-DHL10 cells): 0.608 | TBL1XR1 Fold Change (SU-DHL10 cells): 0.930 | TNF Fold Change (SU-DHL10 cells): 0.858 | TNFAIP3 Fold Change (SU-DHL10 cells): 0.518 | TSC22D3 Fold Change (SU-DHL10 cells): 2.846 | USP2 Fold Change (SU-DHL10 cells): 1.224 | USPS4 Fold Change (SU-DHL10 cells): 0.972 | VDR Fold Change (SU-DHL10 cells): 1.185 | VLDLR Fold Change (SU-DHL10 cells): 0.041 | ZFP36 Fold Change (SU-DHL10 cells): 1.338 | ZHX3 Fold Change (SU-DHL10 cells): 0.981 | ZNF281 Fold Change (SU-DHL10 cells): 1.380
